Data taken from patent US20200308170A1.

Molecular target: KRas G12C (Homo sapiens, UniProt P01116, C118S/C51S/C80L/G12C)
Test: KRas G12C Modification Assay (LCMS detection of covalent adduct)
Format: binding
Details: 5 μM concentration for 3 hours; LC/MS of intact protein; higher POC = higher degree of modification

With `Cc1cccc2cccc(N3CCc4c(nc(OC[C@@H]5CCCN5C)nc4N4CCN(C(=O)/C=C/c5cccnc5)[C@@H](CC#N)C4)C3)c12` the “POC (normalized percent of control; degree of covalent modification of KRas G12C)” value was “C (“C”>50% POC)”.
